# Antibody variant affinities, Ab-95 light chain, assay 2

Target: peptide PDVDLGDISGINAS, taken from heptad repeat 2 (HR2) of SARS-CoV-2 spike.

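The parent was found by panning a naive human phage display library on the peptide. Library AAYL52 holds single substitutions and randomly drawn double and triple substitutions in the CDRs. AlphaSeq pools MATa yeast showing the antibodies with MATalpha yeast showing the peptide. The frequency of each diploid, read from paired DNA barcodes, reflects how well the two displayed proteins bind. Read counts were normalised to the haploid input and turned into Kd by a linear fit to BCL2-family pairs of known affinity, for each replicate. Each pool was mated in three replicate cultures.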

Each scFv is VH, a (GGGGS)3 linker, VL, as in the parent Ab-95, and differs from it in the CDRs of the light chain only.
VH: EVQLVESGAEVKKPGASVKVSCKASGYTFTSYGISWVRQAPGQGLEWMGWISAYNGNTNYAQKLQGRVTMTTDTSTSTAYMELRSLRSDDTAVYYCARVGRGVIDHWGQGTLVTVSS
VL: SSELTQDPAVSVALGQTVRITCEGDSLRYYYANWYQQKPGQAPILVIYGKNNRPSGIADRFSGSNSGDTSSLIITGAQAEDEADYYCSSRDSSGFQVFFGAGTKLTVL

Each variant is given by its three light chain CDRs, as the data file delimits them; those of the parent are EGDSLRYYYAN, GKNNRPS, SSRDSSGFQVF. Scale: log10 of Kd in nM, estimated from mating counts; low values are strong binders. An entry "nd" has no value in the source: the pair was not observed among the diploids in that replicate. This suggests poor binding but is not conclusive. Empty control strains, which show no peptide, gave a signal in 28% of pairings with library AAYL52; the median was 3.91 and 95% of these signals were weaker than 2.90. No background was subtracted. The control count says in how many pairings with the empty strains this scFv gave a signal, with their mean in brackets.

| CDR-L1 | CDR-L2 | CDR-L3 | log10 Kd, replicates | empty controls |
|---|---|---|---|---|
| CGDSLRYYYAN | GKNNVPD | SSRDSSGFQVF | 3.37 nd nd | 1/9 (2.91) |
| EGDSLRYYYAN | GKNNRPS | SSRDLSGFIVF | nd nd nd | 0/9 |
| EADSLRYYYAN | GKNNWPS | SSRSSSGFQVF | nd nd nd | 3/9 (3.59) |
| EGDLLRYYYAV | GKNNRPS | SSRDSSWFQVF | 3.95 3.28 nd | 5/9 (4.11) |
| EGDSLRYYYAN | GKNCRPS | SSRDPRGFQVF | 4.06 3.63 4.59 | 1/9 (3.53) |
| EGKSLRYYYAN | GNNNRPI | SSRDSSGFQVF | 2.53 2.23 2.57 | 3/9 (3.52) |
| EGDSLRAYPAN | GKNNRPS | SSRDSSKFQVF | 2.85 3.77 nd | 3/9 (4.14) |
| EGDSLRYKYAN | GENNHPS | SSRDSSGFQVF | 1.28 1.59 0.82 | 5/9 (4.06) |
| EGDSLRYYYAN | IKNNRPE | SLRDSSGFQVF | nd nd nd | 1/9 (2.98) |
| ECDSLRVYWAN | GKNNRPS | SSRDSSGFQVF | nd nd nd | 0/9 |
| EGDSLRYYYAN | GKNNRFS | ESVDSSGFQVF | 5.48 4.00 3.74 | 3/9 (4.00) |
| EKDSLRYYYAN | GKNNTPS | SSRDWSGFQVF | 4.14 nd 4.40 | 6/9 (3.81) |
| KGDSLRYYYAN | GKNNRPS | RSRDSEGFQVF | 3.54 nd nd | 1/9 (2.47) |
| EGDPLRYYRAN | GKNNRPS | SSRDSSGFQVF | 2.80 2.63 2.49 | 2/9 (3.31) |
| EGDSLRYYYFN | GINNRPS | SSRDSSGFGVF | 3.55 nd nd | 3/9 (3.96) |
| EGDSLRYYYAN | GKNHRYS | SSRDSSGFQVF | 4.19 3.85 3.16 | 0/9 |
| EGDSLRYYYAN | GKNNRWS | SSRDSSGFDVF | nd 3.25 3.81 | 2/9 (4.23) |
| EGDSLRYYYAN | GKNNRPS | SSRDSNGPQVL | nd nd nd | 0/9 |
| EGDSDRYYYAN | GKNNRPS | SARDSAGFQVF | 3.74 5.10 nd | 2/9 (3.92) |
| EGDSLRYYYAN | GKNNLPS | SSDDSSGFAVF | 2.73 4.27 nd | 3/9 (4.13) |
| EGDSLRYWYAN | GKKNRPS | SSMDSSGFQVF | 4.44 nd nd | 2/9 (4.15) |
| EGDSLAYYYAN | GKNNRPY | ESRDSSGFQVF | 2.16 2.32 2.24 | 0/9 |
| EGDSLRYYYIN | GKGNRPS | YSRDSSGFQVF | 3.54 4.83 nd | 2/9 (4.26) |
| EGDSLDYYYAN | GKNNRPL | SSRDSSGQQVF | 3.12 2.05 2.19 | 3/9 (4.01) |
| EGHSLRYYYAN | NKNNRPS | SSRDSSGFQVN | 3.58 nd nd | 1/9 (2.12) |
| EGDSLRYPYAT | KKNNRPS | SSRDSSGFQVF | nd 4.66 nd | 6/9 (4.15) |
| EHDSLRYYYAN | GKQNRSS | SSRDSSGFQVF | 4.60 nd nd | 3/9 (3.63) |
| EGDSLRYSYAD | GKNNRPS | SSRDSPGFQVF | 2.58 3.12 2.90 | 3/9 (3.91) |
| VDLSLRYYYAN | GKNNRPS | SSRDSSGFQVF | nd nd nd | 0/9 |
| EGDSLRYYYAN | GKNNRPS | ESRDSSGFKVF | 2.03 2.02 2.32 | 1/9 (4.35) |
| EGDSLRYNYAN | GKNNREQ | SSRDSSGFQVF | 1.03 1.12 0.31 | 4/9 (4.87) |
| EGDSLRYYGAN | GKNNRPI | SSRDSSGFVVF | 2.40 2.85 2.83 | 1/9 (3.32) |
| EGMWLRYYYAN | GTNNRPS | SSRDSSGFQVF | 3.40 3.19 nd | 0/9 |

Excerpt, the final 2 entries:

{"CDR-L1": "EGDSLRYYGAN", "CDR-L2": "GKNNRPI", "CDR-L3": "SSRDSSGFVVF", "log10 Kd, replicates": "2.40 2.85 2.83", "empty controls": "1/9 (3.32)"}
{"CDR-L1": "EGMWLRYYYAN", "CDR-L2": "GTNNRPS", "CDR-L3": "SSRDSSGFQVF", "log10 Kd, replicates": "3.40 3.19 nd", "empty controls": "0/9"}

For reference, the parent read 2.31 as the reference entry and 2.25 as a member of this library.

The measurements come from Engelhart et al. 2022 (doi:10.1038/s41597-022-01779-4) through the FLAb antibody collection.